Experimental data reported in patent publication US4532255A, “Amidine compounds and anticomplement agent comprising same” (Torii & Co., Ltd., priority 1980, dated 1985).

Molecular target: T1, C1r (Homo sapiens, UniProt P00736)
T1 sequence (P00736 464-705 limits assumed): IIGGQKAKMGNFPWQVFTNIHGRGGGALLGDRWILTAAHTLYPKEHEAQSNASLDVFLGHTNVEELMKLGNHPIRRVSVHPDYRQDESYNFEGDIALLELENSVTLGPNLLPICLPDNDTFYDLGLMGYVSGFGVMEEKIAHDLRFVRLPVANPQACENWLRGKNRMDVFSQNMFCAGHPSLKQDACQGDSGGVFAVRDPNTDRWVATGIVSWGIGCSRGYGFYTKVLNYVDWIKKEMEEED
T1 sequence (P00736 18-463 partner limits assumed): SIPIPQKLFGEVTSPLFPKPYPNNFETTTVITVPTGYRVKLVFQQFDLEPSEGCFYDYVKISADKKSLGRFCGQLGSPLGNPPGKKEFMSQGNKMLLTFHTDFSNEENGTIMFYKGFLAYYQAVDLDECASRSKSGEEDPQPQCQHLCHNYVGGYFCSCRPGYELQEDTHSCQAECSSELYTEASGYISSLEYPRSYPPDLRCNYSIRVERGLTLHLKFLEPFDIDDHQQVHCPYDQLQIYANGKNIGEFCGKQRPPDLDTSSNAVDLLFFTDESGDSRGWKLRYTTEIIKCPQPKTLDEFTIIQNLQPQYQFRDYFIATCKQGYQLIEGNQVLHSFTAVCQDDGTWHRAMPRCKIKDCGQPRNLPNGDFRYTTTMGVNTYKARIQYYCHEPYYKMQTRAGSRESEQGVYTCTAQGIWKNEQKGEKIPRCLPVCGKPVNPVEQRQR
Test: Anti-C1 esterase (C1r) activity (hydrolysis of AAME)
Type: biochemical
Experimental: The anti-Cl esterase ([…]) activity was determined according to the method of Okamura et al. [K. Okamura, M. Muramatsu and S. Fujii, Biochem. Biophys.

`N=C(N)c1ccc2cc(OC(=O)c3ccc(F)cc3)ccc2c1` [Compound 15] was tested, and the IC50 was 0.2 µM.
